Earlier results as cited in patent US20250129012A1, “ANTI-INFLAMMATORY AND ANALGESIC COMPOUNDS AND USE THEREOF” (JIANGSU ATOM BIOSCIENCE AND PHARMACEUTICAL CO., LTD., priority 2021, published 2025).

Conditions: generally believed; cited from earlier work

## COc1cc2c(c(OC)c1OC)-c1ccc(OC)c(=O)cc1[C@@H](NC(C)=O)CC2 [colchicine, reference compound]
  Dose toxic to the body: 0.5 to 0.8 mg/kg
  Fatal dose: higher than 0.8 mg/kg
